From the supplement of paper PMC13380429

System: HepG2
Assay: cell viability relative to DMSO; higher = less toxic
Conditions: 72 h; 100 nM

With `O=S(=O)(c1cccc2c(O)nccc12)N1CCCNCC1` [hydroxyfasudil] the cell viability was 108%.
